EPAC2 agonist = agonists of human EPAC2 (RAPGEF4); 0.079% of 360,000 active; Potency, µM (doses to about 154 µM), actives largely listed as activators; EPAC2 activation, biochemical qHTS; response scale: 100% = 6.5 mM cAMP response; Q8WZA2; further: nearly all actives have a fitted effect of over 50% in size
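Fluorescence exchange assay: 100 nM EPAC2 with 250 nM RAP1B-BODIPY-GDP and 50 uM GDP; compounds tested as a concentration-titration series (qHTS). Loss of Rap1-bound BODIPY-GDP fluorescence read at 480/540 nm; data normalized to 6.5 mM cAMP.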
EPAC1 antagonist = antagonists of human EPAC1. O95398. EPAC1 GEF assay, Rap1b-BODIPY-GDP exchange fluorescence. Potency, µM (titrated, usually from 115 µM), most hits filed as inhibitors. 0.14% of 360,000 active; further: nearly all actives have a fitted effect of over 50% in size
EPAC1 agonist = activates human EPAC1 exchange factor | EPAC1 agonist qHTS, biochemical assay; response scale: 100% = response to 6.5 mM cAMP | Potency, µM (doses to about 154 µM), actives largely listed as activators | 0.073% of 360,000 active | O95398; further: nearly all actives have a fitted effect of over 60% in size
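Multi-concentration qHTS readout: loss of Rap1B-bound BODIPY-GDP fluorescence driven by 100 nM EPAC1 with excess GDP (50 uM), monitored kinetically at room temperature; agonist response expressed relative to 6.5 mM cAMP.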
Rango complex inh = prevents formation of the Rango-importin beta complex; 0.031% of 340,000 active; Q14974; AID 540263; Potency, µM (titrated, usually from 92.2 µM); Rango CFP/YFP FRET sensor + importin beta, 45 min; calls by dose curve; further: nearly all actives have a fitted effect of over 15% in size
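FRET biosensor (snurportin 1 IBB flanked by EYFP and cerulean), 50 nM, with compound 5 min, then 0.125 microM importin beta in PBS, 1 mM DTT, 0.02% Tween-20, 0.1% BSA. CFP/YFP ratio read after 45 min at room temperature; pre-read flags interference.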
Rango dissoc inh = inhibition of RanGTP-driven Rango-importin beta dissociation; Biochemical FRET Rango-importin beta, RanGTP-induced dissociation; Potency, µM (top dose mostly 46.1 µM); 0.071% of 340,000 active; AID 540253; calls by dose curve; further: nearly all actives have a fitted effect of over 45% in size
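Quantitative HTS using a FRET biosensor: 0.1 uM Rango, 0.25 uM importin beta, 0.6 uM Ran, 2 mM GTP, 0.2 uM RCC1 final, PBS with DTT, Tween-20 and BSA. Post-read taken 45 min after Ran addition.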
EPAC2 antag = blocks human EPAC2 exchange factor; EPAC2 GEF exchange of Rap1B-BODIPY-GDP, fluorescence; Potency, µM (doses to about 114 µM), actives largely listed as inhibitors; 0.18% of 360,000 active; further: nearly all actives have a fitted effect of over 45% in size
A number is an active result; – = inactive; ? = inconclusive; · = not tested or not shown; [ ] = remark or other dose. An excerpt weighted towards active compounds, which were near 0.48% of everything screened. Unless noted, the call rests on the fitted dose curve; in most records, active means well fitted curve in the direction sought with a large enough effect; inconclusive means small, poorly fitted or top-dose-only effect, or another doubt; inactive means no such curve, though single readings can be large; an effect the other way counts as inactive or inconclusive.

SMILES | EPAC2 agonist | EPAC1 antagonist | EPAC1 agonist | Rango complex inh | Rango dissoc inh | EPAC2 antag
CSC(=Nc1ccccc1)N=C(SCc1ccccc1)N(C)C | – | – | – | – | – | –
COC(=O)C1=C(C)NC(C)=C(C(=O)OC)C1c1ccc(-c2cccc([N+](=O)[O-])c2)o1 | – | – | – | – | – | –
COC(=O)C1=C(C)NC(C)=C([N+](=O)[O-])C1c1ccccc1C(F)(F)F (stereo unspecified) | – | – | – | – | – | 50µM
O=S(=O)(c1ccc(SCc2ccccc2F)nc1)N1CCCC1 | – | – | – | – | – | –
CC(C)Oc1ccc(C(=O)OC(C)C(=O)NC2CCCCC2C)cc1 (stereo unspecified) | – | – | – | 26µM | – | –
COC(=O)c1cc(C(=O)c2ccc(Cl)cc2)n2c(=O)/c(=C\N(C)C)sc12 | 100µM | – | – | ? | – | –
CC(C)C[C@H]1CNC(=O)C(=O)N1CC1CCN(CCc2ccccc2)CC1 | – | – | – | · | · | –
Cc1ccc(C)c(OCCn2cc(/C=C(\C#N)C(=O)NCc3cccs3)c3ccccc32)c1 | – | – | – | ? | – | –
N#C/C(=C\c1cn(Cc2ccc(C#N)cc2)c2ccccc12)C(=O)NCc1cccs1 | 79µM | – | – | ? | ? | –
N#C/C(=C\c1cn(CCOc2ccccc2F)c2ccccc12)C(=O)NCc1cccs1 | – | – | – | ? | 5.8µM | –
COc1ccc(N2CCN(c3cc(C(=O)Nc4cc(OC)c(OC)c(OC)c4)ncn3)CC2)cc1OC | – | – | – | · | · | –
CC1(C)CNc2cc(N)ccc2S1 | – | – | – | – | – | –
CCc1cc(=O)oc2cc(C)cc(OCC(=O)N[C@@H](CSCc3ccccc3)C(=O)O)c12 | – | – | – | – | – | 56µM
CCOC(=O)C1=C(C)N=c2s/c(=C/c3ccc(OCC(=O)O)cc3)c(=O)n2C1c1cc(OC)c(OC)c(OC)c1 (stereo unspecified) | – | ? | – | ? | ? | –
CCOC(=O)C1=C(C)N=c2sc(=Cc3cc(Cl)c(OCC(=O)O)c(Cl)c3)c(=O)n2C1c1cccc(OC)c1 (stereo unspecified) | – | ? | – | · | · | 25µM
CCOC(=O)C1=C(C)N=c2sc(=Cc3ccc(OCC(=O)O)cc3)c(=O)n2C1c1ccc(Cl)cc1 (stereo unspecified) | – | ? | – | · | · | –
CCOC(=O)C1=C(C)N=c2s/c(=C\c3ccc(OCC(=O)O)cc3)c(=O)n2C1c1ccc(OC(C)C)cc1 (stereo unspecified) | – | 56µM | – | ? | ? | –
CC(C)[C@H](NC(=O)OC(C)(C)C)c1cc(C(=O)N2CCOCC2)c(N)s1 | – | – | – | · | · | –
CC(C)C[C@H]1COc2cccc(N3CCSCC3)c2S(=O)(=O)N1 | – | – | – | · | · | –
COc1cccc(Nc2ccccc2C(=O)O)c1 | – | ? | – | – | – | –
COc1cc(-c2ccc(Nc3ccccc3C(=O)O)c(OC)c2)ccc1Nc1ccccc1C(=O)O | – | 79µM | – | – | – | –
Cc1ccc2nc(SCC(=O)c3c(N)n(C4CC4)c(=O)[nH]c3=O)[nH]c2c1 | – | – | – | – | – | 71µM
Cc1cc(NC(=O)c2cc([N+](=O)[O-])ccc2Cl)no1 | – | – | – | – | – | –
O=C(Nc1cccc(NC(=O)c2cc([N+](=O)[O-])ccc2Cl)n1)c1cc([N+](=O)[O-])ccc1Cl | – | – | – | 21µM | – | –
CC(C)CCNc1c(-c2cccs2)nc2ccccn12 | – | – | – | ? | ? | 45µM
SMILES | EPAC2 agonist | EPAC1 antagonist | EPAC1 agonist | Rango complex inh | Rango dissoc inh | EPAC2 antag
COc1cc(CNn2cnnc2)ccc1OCC(=O)NC(C)(C)C | 10µM | – | – | – | – | –
O=C(/C=C/Nc1ccc(S(=O)(=O)Nc2cnc3ccccc3n2)cc1)c1ccccc1 | – | – | – | ? | 8.2µM | –
Cc1ccc(S(=O)(=O)Nc2ccccc2C=NNC(=O)c2ccncc2)cc1 | – | – | – | · | · | –
Cc1ccc(S(=O)(=O)Nc2ccccc2N=Cc2c(F)c(F)c(F)c(F)c2F)cc1 | – | – | – | ? | – | –
Cc1ccc(S(=O)(=O)Nc2ccccc2/C=N/c2nc3ccccc3n2C)cc1 | – | – | – | ? | 8.2µM[inhibitor] | –
Cc1ccc(S(=O)(=O)Nc2ccccc2C=Nc2cccc(C)c2C)cc1 | – | ? | – | ? | 7.3µM | –
CCOC(=O)C1=CCC(c2cc3ccc(OC)cc3n2C(=O)OC(C)(C)C)NC1 (stereo unspecified) | – | – | – | · | · | –
O=C(N/N=C/c1cc(Br)c(O)c(Br)c1)c1cc2c(ccc3ccccc32)o1 | – | 28µM | – | ? | ? | –
COc1cccc(-c2nnc(NC(=O)c3ccc(S(=O)(=O)N4CC(C)OC(C)C4)cc3)o2)c1 (stereo unspecified) | – | – | – | – | – | –
O=C(Nc1ccc(Cl)c(Cl)c1)N[C@@H]1CC[C@@H](CCn2cc(C3CCCCC3)nn2)O[C@@H]1CO | – | – | – | · | · | –
COC(=O)c1cn(C(=O)OC)c2ccccc12 | – | – | – | – | – | –
COC(=O)c1cn(C(=O)c2ccccc2Cl)c2ccccc12 | – | – | – | – | – | 28µM
COc1ccc(N2CCN(C(=O)CCc3ccccc3OC)CC2)cc1 | – | 89µM | – | – | – | –
CN1/C(=C\C=C(/C#N)C(=O)Nc2ccc(Cl)cc2)C(C)(C)c2ccccc21 | 50µM | – | ? | ? | ? | –
CN1/C(=C\C=C(C#N)C#N)C(C)(C)c2ccccc21 | 63µM | – | – | ? | ? | –
CN1/C(=C\C(=O)Nc2ccc(Cl)cc2)C(C)(C)c2ccccc21 | – | – | – | – | – | –
O=C(Nc1ccnn1C1CCN(C(=O)c2cccnc2)CC1)c1cccc(F)c1 | – | – | – | · | · | –
O=C(N/N=C/c1ccc(OC(=O)c2ccccc2Cl)cc1)c1cc(O)cc(O)c1 | – | 71µM | – | – | – | –
COc1cccc(-c2nc3nc(C)cc(C)n3c2Nc2c(C)cccc2C)c1 | – | – | – | · | · | –
O=C(O)C(Cc1c[nH]c2ccccc12)NS(=O)(=O)c1cccc(Cl)c1Cl (stereo unspecified) | – | – | – | – | – | 45µM
O=C(O)c1ccc(Cl)c(S(=O)(=O)NC(Cc2c[nH]c3ccccc23)C(=O)O)c1 (stereo unspecified) | – | – | – | – | – | –
CC(C)(C)NC(=O)C1C(c2ccc(C(F)(F)F)cc2)=Nc2ccccc2N1C(=O)c1cccc(C(F)(F)F)c1 (stereo unspecified) | – | – | – | · | · | –
